Results from ChEMBL document CHEMBL4041526, “Discovery of 2H-Chromen-2-one Derivatives as G Protein-Coupled Receptor-35 Agonists” (J Med Chem, 2017).
Active and inactive are the calls of the source. The calls are words filed in the database; no cut-off is given here.

By UniProt entry, the sequences of proteins in these tests, tags left out. Where a name states a change or a piece, a line headed by the entry shows the natural chain unless it says otherwise.
UniProt Q9HC97: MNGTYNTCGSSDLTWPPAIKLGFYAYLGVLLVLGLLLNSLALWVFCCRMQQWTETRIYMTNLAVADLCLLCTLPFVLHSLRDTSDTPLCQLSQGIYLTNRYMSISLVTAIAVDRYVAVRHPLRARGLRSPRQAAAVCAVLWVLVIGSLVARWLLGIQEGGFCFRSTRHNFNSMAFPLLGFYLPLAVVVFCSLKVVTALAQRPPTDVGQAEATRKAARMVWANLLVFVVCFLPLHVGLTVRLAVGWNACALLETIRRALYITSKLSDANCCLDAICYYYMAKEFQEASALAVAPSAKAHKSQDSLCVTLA

Molecular target: G-protein coupled receptor 35 (Homo sapiens, UniProt Q9HC97)
Assay: Agonist activity at GPR35 in human HT-29 cells in presence of antagonist ML-145 by DMR assay
Type: cell-based
In short: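 HT-29 DMR antagonist format: ML-145 was titrated against the coumarin agonist, each agonist given at its EC80–EC100 dose. Cells were kept in HBSS and equilibrated 1 h in the reader. IC50 was calculated from the DMR amplitude at 8 min post-stimulation. Mean ± sd, two independent measurements × four replicates (n=8).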

Activity: inactive
SMILES: N#Cc1cc2ccccc2oc1=O
